Laboratory results: patent publication US6380162B1, “Ice inhibiting peptides” (Applied Research Systems ARS Holding N.V., priority 1999, dated 2002)

Biological target: T1, ICE (Homo sapiens, UniProt P29466)
T1 construct: expressed in transfected cells; host or cells: COS-7 cells transfected with pSG5-ICE cDNA, or alternatively lysate of freshly isolated human monocytes
T1 sequence (P29466 120-404): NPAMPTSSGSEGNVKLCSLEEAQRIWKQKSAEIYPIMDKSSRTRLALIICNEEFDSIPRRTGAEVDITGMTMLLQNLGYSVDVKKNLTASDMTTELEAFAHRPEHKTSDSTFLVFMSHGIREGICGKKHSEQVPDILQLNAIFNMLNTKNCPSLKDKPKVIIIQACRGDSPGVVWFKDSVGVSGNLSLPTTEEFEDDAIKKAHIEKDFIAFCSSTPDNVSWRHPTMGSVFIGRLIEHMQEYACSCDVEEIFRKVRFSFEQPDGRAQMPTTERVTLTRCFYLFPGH
Assay: Inhibition of ICE cleavage of pIL-1β, SDS-PAGE and Western blotting
Assay type: biochemical
Details: icIL-1raII tested for ability to inhibit ICE activity
Protocol: cDNA coding for human ICE has been amplified by PCR. The sequence was confirmed and the cDNA was subcloned into pSG5 expression vector. COS cells were transfected with empty vector (mock) or vector containing ICE cDNA and after 48 hours, cells were analysed for the expression of ICE specific mRNA.
A monocyte lysate, prepared as previously described (11), was also able to convert pIL-1β into a mature form (FIG. 2). Therefore, recombinant ICE or freshly isolated human monocytes were used as a source of ICE enzymatic activity for further experiments.
A source of ICE activity was prepared and its ability to cleave pIL-1β was tested by incubating the reaction at 37° C. for 1 hour. The mixture was then run on SDS-PAGE and the presence of pIL1-β or the mature form was evidenced by Western Blotting.

B1: icIL-1raII: new molecular form of intracellular IL-1 receptor antagonist, approximately 25 kDa in SDS-PAGE (protein)
chain: MALADLYEEGGGGGGEGEDNADSKETICRPSGRKSSKMQAFRIWDVNQKTFYLRNNQLVAGYLQGPNVNLEEKIDVVPIEPHALFLGIHGGKMCLSCVKSGDETRLQLEAVNITDLSENRKQDKRFAFIRSDSGPTTSFESAACPGWFLCTAMEADQPVSLTNMPDEGVMVTKFYFQEDE
inhibition of ICE activity: inhibits ICE activity
